## Yeast mating assay B: variants of the scFv Ab-14

The measurements come from Li et al. 2023 (doi:10.1038/s41467-023-39022-2) through the FLAb antibody collection.

Antigen: PDVDLGDISGINAS, a 14-residue peptide of the SARS-CoV-2 spike HR2 region.

Each scFv is VH, a 15-residue (Gly4Ser)3 linker, VL, as in the parent Ab-14, and differs from it in the CDRs of the heavy chain only.
VH: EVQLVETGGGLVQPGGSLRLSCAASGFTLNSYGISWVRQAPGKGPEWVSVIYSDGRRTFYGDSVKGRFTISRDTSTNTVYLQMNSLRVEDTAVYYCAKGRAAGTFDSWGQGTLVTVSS
VL: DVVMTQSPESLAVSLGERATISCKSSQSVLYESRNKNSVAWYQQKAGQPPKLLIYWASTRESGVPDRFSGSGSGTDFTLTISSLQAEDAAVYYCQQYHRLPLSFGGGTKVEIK

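These sequences belong to a second round, designed from the earlier measurements on random variants of the parent. Their group label is 14H_GPLM_Gen (GPLM: also part of the Gaussian process libraries; Gen: genetic algorithm; a sequence that several methods proposed may carry one label only). The assay is AlphaSeq: two haploid yeast populations carry antibody and antigen on their surface. Binding brings cells together so that they mate, and sequencing counts the barcode pairs among the diploids. Each replicate has its own calibration line, from reference interactions of the BCL2 family. Each pool was mated in six replicate cultures.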

Variants are written as CDR1, CDR2 and CDR3 of the heavy chain (limits as in the source). Parent: GFTLNSYGIS, VIYSDGRRTFYGDSVK, GRAAGTFDS.
Scale: log10 of Kd in nM, estimated from mating counts; low values are strong binders.
A mean of the replicates is given; it leaves out those without a signal.
"ND" marks a missing value. The strain was present, yet no cells mated with the target were sequenced in that replicate, which points to weak or no binding.
Empty control strains, which show no peptide, gave a signal in 1% of pairings with all heavy chain designs; the median was 2.08 and 95% of these signals were weaker than 0.84. No background was subtracted. For each scFv, signals with the empty controls are counted beside the result, with their mean in brackets.
The authors averaged sequences with at least three values out of six and counted those with two or fewer as poor binders.
Of ten entries with the parent sequence, four were seen in most replicates (averages 0.34 to 2.37), three in one and three in none, so single entries are noisy.
A sequence measured in both rounds can read differently, since the two assays cover different ranges.

CDR-H1,CDR-H2,CDR-H3,log10 Kd (nM) by replicate,mean log10 Kd (nM),empty controls
GFSLNSYGIS,VIYSDGRRTFYADSVK,GVVAGTFDS,-0.48 / -0.70 / -0.69 / -0.63 / -0.77 / -0.45,-0.62,0/18
GFSLNSYGIS,VIYSDGKRTFYGDSVK,GRTAGTFDT,0.10 / -0.06 / -0.18 / -0.26 / -0.14 / 0.04,-0.08,1/18 (2.60)
GFTLNSYGIS,VIYSDGRRTFYADSVK,GNAAGTFDS,ND / ND / ND / ND / ND / ND,ND,0/18
GFTLNSYGIS,VIYSDGRRTFYSDSVK,GKAAGTFDT,0.90 / 0.77 / 1.42 / 0.77 / 0.47 / 0.82,0.86,0/18
GFTLNEYGIS,VIYSDGRRTFYGDSVK,GRLAGTFDS,0.96 / 1.18 / 0.10 / 0.26 / 0.29 / 0.70,0.58,0/18
GFSLNSYGIS,VIYSDGRRTFYSDSVK,GQAAGTFDA,0.49 / 0.19 / -0.14 / 0.32 / 0.15 / 0.63,0.27,0/18
GFQLNSYGIS,VIYSDGRRTFYADSVK,GNAAGTFDS,ND / ND / ND / ND / ND / ND,ND,0/18
GFTLNSYGIS,VIYSDGRRTFYGDSVK,GLEAGTFDT,0.90 / 0.65 / 0.83 / 1.14 / ND / 1.32,0.97,0/18
GFELNSYGIS,VIYSDGKRTFYADSVK,GQAAGTFDS,0.78 / 0.92 / 0.92 / 1.34 / 0.22 / 1.24,0.90,0/18
GFSLNSYGIS,VIYSDGRRTVYGDSVK,GRTAGTFDS,0.31 / -0.02 / 0.49 / -0.15 / 0.10 / 0.28,0.17,0/18
GFSLNSYGIS,VIYSDGRRTFYSDQVK,GRTAGTFDS,0.35 / 0.22 / 0.17 / 0.21 / 0.41 / 0.43,0.30,0/18
GFDLNSYGIS,VIYSDGRRTFYGDSVK,GRMAGTFDS,ND / 1.58 / ND / ND / ND / ND,1.58,0/18
GFSLNEYGIS,VIYSDGRRTFYGDSVK,GRFAGTFDS,0.37 / 0.43 / -0.25 / -0.66 / -0.58 / 1.09,0.06,0/18
GFSLNSYGIS,VIYSDGRRTFYADSVK,GRAAGTFDL,0.22 / 0.51 / 0.80 / ND / 0.01 / 1.05,0.52,0/18
KFSLNSYGIS,VIYSDGRRTFYADSVK,GQAAGTFDS,ND / ND / ND / ND / ND / ND,ND,0/18
SFSLNSYGIS,VIYSDGRRTFYGDSVK,GQAAGTFDS,ND / ND / ND / ND / ND / 2.07,2.07,2/18 (2.29)
GFSLNDYGIS,VIYSDGRRTFYGDRVK,GRTAGTFDS,-0.21 / -0.07 / -0.34 / -0.21 / -0.21 / -0.17,-0.20,0/18
GFNLNSYGIS,VIYSDGRRTFYADSVK,GQLAGTFDS,0.42 / 0.10 / -0.09 / 0.26 / 0.26 / 0.22,0.20,1/18 (2.80)
GFTLNSYGIS,VIYSDGRRTFYADSVK,GQTAGTFDT,-0.13 / 0.29 / -0.21 / -0.04 / -0.48 / 0.07,-0.08,0/18
GFSLNSYGIS,VIYSDGRRTFYSDSVK,GTAAGTFDS,-0.14 / 0.12 / 0.11 / -0.03 / -0.14 / 0.03,-0.01,0/18
GFSLNEYGIS,VIYSDGRRTFYGDSVK,GKTAGTFDS,ND / ND / ND / 2.46 / ND / ND,2.46,0/18
GFTLNSYGIS,VIYSDGMRTFYGDSVK,GRVAGTFDS,0.46 / ND / 1.28 / 1.12 / 0.69 / 0.99,0.91,0/18
GFELNSYGIS,VIYSDGRRTFYGDSVK,GRTAGTFDS,0.47 / 0.01 / 0.43 / 0.07 / 0.29 / 0.13,0.23,0/18
GFQLNSYGIS,VIYSDGRRTFYGDSVK,GREAGTFDT,0.29 / 0.88 / 0.09 / 0.15 / 0.23 / 0.68,0.39,1/18 (2.45)
GFTLNEYGIS,VIYSDGRRTFYGDSVK,GRTAGTFDG,0.76 / -0.19 / -0.35 / 1.51 / 0.46 / 0.56,0.46,0/18
GFSLNSYGIS,VIYSDGRRTFYGDQVK,GKAAGTFDS,ND / ND / 2.11 / ND / ND / ND,2.11,0/18
GFWLNEYGIS,VIYSDGRRTFYGDSVK,GRTAGTFDG,ND / ND / 3.63 / ND / 1.66 / ND,2.64,2/18 (1.76)
GFTLNDYGIS,VIYSDGRRTFYGDSVK,GRVAGTFDT,0.51 / -0.83 / ND / 1.32 / -0.28 / -0.91,-0.04,0/18
GFDLNSYGIS,VIYSDGRRTFYGDSVK,GRTAGTFDT,1.01 / 0.06 / 0.27 / 0.45 / -0.20 / 0.93,0.42,0/18
GFSLNSYGIS,VIYSDGRRTFYEDSVK,GRQAGTFDS,1.07 / 0.22 / 0.77 / 0.25 / -0.01 / 0.86,0.53,0/18
GFSLNSYGIS,VIYSDGRRTFYADRVK,GNAAGTFDS,1.03 / 2.79 / 1.36 / 1.01 / 1.55 / 1.29,1.51,1/18 (1.30)
GFSLNSYGIS,VIYADGRRTFYGDSVK,GRAAGTFDV,-0.02 / -0.13 / -0.23 / 0.01 / 0.12 / -0.04,-0.05,1/18 (2.19)
GFDLNSYGIS,VIYSDGRRTFYGDSVK,GQTAGTFDS,-0.17 / -0.70 / -0.28 / -0.10 / -0.71 / -0.28,-0.37,0/18
KFSLNSYGIS,VIYSDGRRTFYADSVK,GRAAGTFDS,ND / ND / 1.35 / 1.63 / 1.74 / 1.38,1.52,0/18
GFWLNDYGIS,VIYSDGRRTFYIDSVK,GNAAGTFDS,1.82 / 0.81 / 1.08 / 1.22 / 1.12 / 1.63,1.28,0/18

The first 6 entries again:

CDR-H1	CDR-H2	CDR-H3	log10 Kd (nM) by replicate	mean log10 Kd (nM)	empty controls
GFSLNSYGIS	VIYSDGRRTFYADSVK	GVVAGTFDS	-0.48 / -0.70 / -0.69 / -0.63 / -0.77 / -0.45	-0.62	0/18
GFSLNSYGIS	VIYSDGKRTFYGDSVK	GRTAGTFDT	0.10 / -0.06 / -0.18 / -0.26 / -0.14 / 0.04	-0.08	1/18 (2.60)
GFTLNSYGIS	VIYSDGRRTFYADSVK	GNAAGTFDS	ND / ND / ND / ND / ND / ND	ND	0/18
GFTLNSYGIS	VIYSDGRRTFYSDSVK	GKAAGTFDT	0.90 / 0.77 / 1.42 / 0.77 / 0.47 / 0.82	0.86	0/18
GFTLNEYGIS	VIYSDGRRTFYGDSVK	GRLAGTFDS	0.96 / 1.18 / 0.10 / 0.26 / 0.29 / 0.70	0.58	0/18
GFSLNSYGIS	VIYSDGRRTFYSDSVK	GQAAGTFDA	0.49 / 0.19 / -0.14 / 0.32 / 0.15 / 0.63	0.27	0/18